Source: PubChem (Broad Institute)
SIRT5 inh: blocks human SIRT5 desuccinylation of peptide; Q9NXA8; Purified SirT5, succinyl-peptide AMC, trypsin-coupled fluorescence; inhibition, % at 15 µM; 330,000 tested, 1.1% active; in the data active = inhibition above about 15%
FGF22 binding: shifts melting point of recombinant human FGF22. AID 651658. Q9HCT0. activity (Tm shift, normalised), % at 9.99 µM. recombinant FGF22 thermal shift, SYPRO orange fluorescence; percent of sucrose octasulfate shift, DMSO zero. 340,000 tested, 1.5% active;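 active = mean Tm shift, scaled 0 neutral to 100 positive control, at about 1.3% or above, every replicate too, limit read from the data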
PDI inh: inhibitors of human protein disulfide isomerase | AID 588391 | 350,000 tested, 0.052% active | inhibition, % at 10 µM | PDI insulin aggregation turbidity, A650, 90 min;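 active = mean inhibition across replicates of 30% or more, whatever share of single replicates reach that level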
UUG fidelity: yeast start codon fidelity modulation | S. cerevisiae UUG-firefly luciferase reporter, luminescence/redox ratio | activity score, % at 18.7 µM | 0.13% of 350,000 active | AID 602363;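 active means replicate mean at a twofold rise or more, about +100% in these data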;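 further: firefly luciferase made from a UUG start codon reports start codon fidelity; reporter light over untreated wells divided by growth signal over untreated wells; some hits fall short of that in this replicate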
ERp5 inh: blocks human ERp5 reductase activity on insulin | inhibition, % at 9.99 µM | Q15084 | ERp5 insulin aggregation, absorbance 650 nm, 90 min | 350,000 tested, 0.05% active;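 active = mean replicate inhibition above about 25%, with every replicate also reaching it, limit read from the data, passing the limit was not always enough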
S100A4 inh HTS: inhibitors of human S100A4 binding to myosin IIA peptide; inhibition, % at 10.7 µM; S100A4/TAMRA-MyoIIA peptide fluorescence polarization; P26447; AID 652163; 360,000 tested, 0.14% active;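 active = mean inhibition of at least 70% across replicates, with every replicate also reaching that level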
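Assay system: human S100A4 monomer with TAMRA-labelled myosin IIA peptide / Buffer or medium: Calcium-containing HEPES buffer, pH 7.2 / Reagent: TAMRA-labelled myosin IIA heavy-chain peptide probe, 5 nM / Compound: one dose per compound / Timing: polarization read 5 min after assay mix addition, stable 5–60 min / Benchmarks: neutral control DMSO, positive control TFP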
Starred values were filed as active, the others as inactive; · = no result given; ! = not active in a repeat. The list is not random: actives were taken first. Their share in the collection is about 2.2%.

SMILES | SIRT5 inh | FGF22 binding | PDI inh | UUG fidelity | ERp5 inh | S100A4 inh HTS
CCO[C@H]1OC(C(=O)O)=C[C@@H](c2ccc3c(c2)OCO3)[C@@H]1CCCO | -1.6 | 44.5*! | -9.0 | -1.6 | -2.5 | -15.3
CCO[C@H]1OC(C(=O)N2CCCC2)=C[C@@H](c2ccc3c(c2)OCO3)[C@@H]1CCCO | 2.8 | -0.3 | · | · | 2.5 | 10.4
CCO[C@H]1OC(C(=O)O)=C[C@@H](C)[C@@H]1CCCO | -1.7 | -0.2 | 5.2 | -19.3 | 3.8 | 0.6
CCO[C@H]1OC(C(=O)O)=C[C@@H](C(C)(C)C)[C@@H]1CCCO | 22.8* | -0.1 | -1.2 | -1.8 | 1.2 | -0.4
COc1ccc(NC(=O)N(C)C[C@@H]2Oc3c(NC(=O)CCCCCC(=O)Nc4ccccc4N)cccc3C(=O)N([C@H](C)CO)C[C@H]2C)cc1 | · | -0.1 | · | · | 5.2 | 2.8
Cc1cc(C)c[n+](-c2nc3ccccc3nc2[N-]S(=O)(=O)c2ccc(Br)s2)c1 | 2.2 | 44.0* | 0.0 | -21.6 | -1.7 | 1.6
CC(=O)C1=C(O)C(=O)N(CCCn2ccnc2)C1c1ccc(Br)cc1 (stereo unspecified) | 2.6 | 43.0* | 2.9 | -16.2 | -1.4 | -1.5
COc1ccc(C2C(C(C)=O)=C(O)C(=O)N2CCCn2ccnc2)cc1OC (stereo unspecified) | · | · | -5.2 | -15.5 | · | ·
CCCNC(=O)C[C@H]1CC[C@H]2[C@H](COc3ccc(NC(=O)c4cccc(C(F)(F)F)c4)cc3C(=O)N2C)O1 | -0.6 | -0.4 | · | -1.7 | -0.9 | 2.5
COc1cccc(/C=N/NC(=O)CCn2nnc3ccccc32)c1 | -0.8 | 43.5* | 2.6 | -14.3 | 1.2 | -10.5
O=C(CCn1nnc2ccccc21)N/N=C\Cc1ccccc1 | -1.5 | 43.2* | 1.4 | · | 2.3 | -8.7
COc1cc(/C=N/NC(=O)CCn2nnc3ccccc32)ccc1O | -0.8 | 0.3 | 2.4 | · | -2.6 | -1.8
CCCNC(=O)C[C@@H]1C[C@H]2c3cc(NC(=O)C4CCOCC4)ccc3O[C@H]2[C@H](CO)O1 | -4.0 | -0.1 | · | -16.5 | 4.0 | 0.1
CNC(=O)C[C@H]1CC[C@H]2[C@H](COc3ccc(NC(=O)Nc4ccc(Cl)cc4)cc3C(=O)N2C)O1 | -3.5 | -0.3 | · | 10.9 | 9.4 | 6.6
COc1cccc(CC2(CO)CCCN(S(=O)(=O)N(C)C)C2)c1 (stereo unspecified) | 1.5 | 0.2 | 4.6 | · | -0.4 | -12.6

Continued (3 carried over from the part before).
SMILES | SIRT5 inh | FGF22 binding | PDI inh | UUG fidelity | ERp5 inh | S100A4 inh HTS
CCCNC(=O)C[C@@H]1C[C@H]2c3cc(NC(=O)C4CCOCC4)ccc3O[C@H]2[C@H](CO)O1 | -4.0 | -0.1 | · | -16.5 | 4.0 | 0.1
CNC(=O)C[C@H]1CC[C@H]2[C@H](COc3ccc(NC(=O)Nc4ccc(Cl)cc4)cc3C(=O)N2C)O1 | -3.5 | -0.3 | · | 10.9 | 9.4 | 6.6
COc1cccc(CC2(CO)CCCN(S(=O)(=O)N(C)C)C2)c1 (stereo unspecified) | 1.5 | 0.2 | 4.6 | · | -0.4 | -12.6
CCOC(=O)N1CCC(N2CCCC(CO)(Cc3cccc(OC)c3)C2)CC1 (stereo unspecified) | 0.0 | 43.3* | 8.7 | · | 3.6 | -17.2
CCOC(=O)C1(Cc2ccccc2)CCCN(C2CCN(C(C)=O)CC2)C1 (stereo unspecified) | 22.7* | · | 7.6 | 1.7 | 6.6 | -39.3
C#Cc1ccc([C@@H]2C=C(C(=O)Nc3ccccc3)O[C@H](OCc3ccc(CO)cc3)C2)cc1 | 5.4 | 0.0 | · | -14.3 | -4.4 | 1.3
CCN(CC)C(=O)CSc1nc2c(c(-c3cccnc3)c1C#N)CCCC2 | 2.8 | 43.2* | -0.1 | · | -9.4 | 0.8
N#Cc1c(SCC(N)=O)nc2c(c1-c1ccncc1)CCCC2 | -0.3 | -0.2 | 2.6 | · | 1.3 | -2.1
COc1cc(/C=N/Nc2ncc(C(F)(F)F)cc2Cl)cc(OC)c1OC | -5.3 | 43.4* | -12.4 | · | -7.7 | 2.6
COc1ccc(CN(C)C[C@H]2OCCCC[C@@H](C)Oc3ccc(NS(=O)(=O)c4cn(C)cn4)cc3C(=O)N([C@@H](C)CO)C[C@H]2C)cc1 | -1.8 | 0.6 | · | -4.0 | 2.8 | -68.4
Cc1ccc(S(=O)(=O)Nc2ccc3c(c2)C(=O)N([C@@H](C)CO)C[C@@H](C)[C@H](CN(C)C(=O)CCCN(C)C)OCCCC[C@H](C)O3)cc1 | -8.3 | -0.1 | · | 17.3 | -1.1 | -10.9
N#CC1=C(N)C(C#N)(C#N)[C@H](c2cccnc2)[C@H]2CN(C(=O)OCc3ccccc3)CC=C12 | 15.7* | 0.0 | -1.9 | -6.9 | -8.1 | 0.6
N#CC1=C(N)C(C#N)(C#N)C(c2ccncc2)C2CN(C(=O)OCc3ccccc3)CC=C12 (stereo unspecified) | · | · | 5.5 | 6.7 | · | ·
Cc1cc(Cl)ccc1OCc1n[nH]c(=S)n1C1CCCCC1 | · | · | 32.2* | -11.9 | · | ·
COc1ccc(Cl)cc1-c1n[nH]c(=S)n1C1CCCCC1 | · | · | 11.7 | -29.2 | · | ·
C[C@H](CO)N1C[C@H](C)[C@H](CN(C)C(=O)CC2CC2)Oc2cc(C3=CCCC3)ccc2S1(=O)=O | 4.8 | -0.3 | · | 14.8 | -3.1 | 6.2
O=C(C[C@H]1CC[C@@H]2NC[C@H](O)COC[C@H]2O1)NCCN1CCCC1 | -11.8 | · | · | · | 7.0 | 11.9
CC(=O)c1cccc(NC(=O)CSc2n[nH]c(=O)n2C2CC2)c1 | · | 43.1* | -3.6 | -9.8 | 4.9 | -0.4
O=C(CSc1n[nH]c(=O)n1C1CC1)Nc1ccc(Cl)c(Cl)c1 | -3.7 | -0.1 | -3.8 | -3.0 | -8.1 | -1.6
COc1ccc(-c2nc3cc(C)ccn3c2NCC2CCCO2)cc1OC (stereo unspecified) | · | · | 7.3 | -5.0 | · | ·
COc1cc(-c2nc3cccc(C)n3c2NCC2CCCO2)ccc1O (stereo unspecified) | -3.0 | 43.1* | -1.4 | · | -0.7 | 7.3
COc1cc(NC(=O)COn2nnc3ccc(S(C)(=O)=O)cc32)cc(OC)c1 | -4.9 | 43.1* | 4.4 | -4.4 | 4.8 | -2.5
Cc1cc(NC(=O)COn2nnc3ccc(S(C)(=O)=O)cc32)ccc1Br | 0.0 | 0.0 | 5.0 | · | 3.7 | 1.2
CCCn1c(SCC(=O)N2CCCCC2)nnc1-c1ccccn1 | -10.3 | 43.9* | · | · | -2.9 | 0.3
CO[C@H]1CN(C)C(=O)c2cc(NS(=O)(=O)CC(F)(F)F)ccc2OC[C@H](C)N(Cc2cccnc2)C[C@@H]1C | · | 0.0 | · | -4.0 | 0.4 | -5.7
O=C(O)C1CCCCC1C(=O)Nc1nc(-c2ccc(Cl)s2)cs1 (stereo unspecified) | 3.6 | 43.3* | 13.6 | · | -0.7 | -15.8
Cc1cccc2c3c([nH]c12)[C@H]1CCC(=O)N1CC3 | -3.9 | -0.2 | · | · | 0.4 | 3.4
N#Cc1ccc(-c2ccc3c(c2)[C@H]2[C@H](CCN2C(=O)CN2CCOCC2)[C@@H](CO)N3)cc1 | -5.5 | -0.2 | · | -8.7 | -5.1 | -18.0
CN1C(=O)c2cc(NS(=O)(=O)c3ccc(Cl)cc3)ccc2OC[C@@H]2O[C@@H](CC(=O)N3CCc4ccccc4C3)CC[C@@H]21 | 7.7 | · | · | 7.2 | -4.7 | -14.8
CN1C(=O)c2cc(NC(=O)C3CCCCC3)ccc2OC[C@@H]2O[C@@H](CC(=O)NC3CCCC3)CC[C@H]21 | -0.4 | 0.1 | · | 11.4 | 31.0* | -6.9
COc1cccc(CNC(=O)C[C@H]2CC[C@@H]3[C@@H](COc4ccc(NC(=O)c5cccs5)cc4C(=O)N3C)O2)c1 | 24.6* | 0.0 | · | · | 3.2 | -0.6

Sorted by the number under PDI inh (descending): 3 of the compounds above.
SMILES | PDI inh
O=C(O)C1CCCCC1C(=O)Nc1nc(-c2ccc(Cl)s2)cs1 (stereo unspecified) | 13.6
COc1cc(-c2nc3cccc(C)n3c2NCC2CCCO2)ccc1O (stereo unspecified) | -1.4
O=C(CSc1n[nH]c(=O)n1C1CC1)Nc1ccc(Cl)c(Cl)c1 | -3.8
